Experimental data published in patent US8846746B2, “Pyrazole compound and pharmaceutical use thereof” (Japan Tobacco Inc., priority 2011, dated 2014).

Amino acid sequences for entries named in this document (tags omitted). A change or cut given only in a name is not applied to a line headed by its entry.
UniProt P13866: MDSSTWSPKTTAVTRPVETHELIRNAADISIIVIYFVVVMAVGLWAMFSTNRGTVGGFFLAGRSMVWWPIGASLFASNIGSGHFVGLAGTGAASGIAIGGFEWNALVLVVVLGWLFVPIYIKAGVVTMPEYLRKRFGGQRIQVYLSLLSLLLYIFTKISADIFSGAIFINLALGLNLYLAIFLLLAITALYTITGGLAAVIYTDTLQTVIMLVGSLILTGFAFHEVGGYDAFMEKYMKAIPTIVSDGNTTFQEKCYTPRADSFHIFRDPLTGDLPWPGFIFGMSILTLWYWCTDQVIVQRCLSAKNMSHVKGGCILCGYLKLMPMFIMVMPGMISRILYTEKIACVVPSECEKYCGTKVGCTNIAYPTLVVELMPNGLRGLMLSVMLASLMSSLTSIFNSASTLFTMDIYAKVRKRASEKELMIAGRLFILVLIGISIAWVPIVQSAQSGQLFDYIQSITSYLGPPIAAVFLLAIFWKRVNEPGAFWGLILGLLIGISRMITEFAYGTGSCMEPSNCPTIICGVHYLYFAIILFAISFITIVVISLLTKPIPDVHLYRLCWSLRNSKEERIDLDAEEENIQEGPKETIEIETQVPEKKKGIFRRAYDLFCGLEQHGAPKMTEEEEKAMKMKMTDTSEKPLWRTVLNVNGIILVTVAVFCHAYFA

Target: human SGLT1 (Homo sapiens (Human), UniProt P13866)
Assay: SGLT1 inhibitory activity: 14C-AMG uptake into CHO-K1 cell line stably expressing human SGLT1
Format: cell-based
Experimental: SGLT1 inhibitory activity of a test compound (IC50 value) was calculated based on an amount of intake into a cell of labeled α-methyl-D-glucopyranoside (^14C-AMG) which is transported by SGLT1.
1) Construction of Human SGLT1 Expression Plasmid
A DNA fragment containing human SGLT1, wherein NheI recognition and cleavage sequence was added upstream of a Kozac consensus sequence of the vector; and a stop codon (TAG) and a SalI recognition and cleavage sequence was added just downstream of a coding region of the human SGLT1, was amplified by PCR using pCMV6-hSGLT1 (OriGene) as a template. The purified DNA fragment was cleaved by restriction enzymes NheI and SalI, and the obtained fragment was ligated into pcDNA3.1 (+) which was cleaved by NheI and XhoI to construct human SGLT1 expression plasmid.
2) Establishment of Stable Cell Lines Expressing Human SGLT1
A human SGLT1 expression plasmid pcDNA-hSGLT1 was transfected into CHO-K1 cells by Lipofectamine-2000 (Invitrogen). The cells were cultured in the presence of G418 (Nakalai tesque) and drug-resistant cells were selected. A cell line having the highest S/B ratio of an amount of ^14C-AMG uptake per cell treated by solvent to an amount of ^14C-AMG uptake per cell treated by phlorizin (SGLT inhibitor) was selected from the drug-resistant cells as a stable cell lines expressing human SGLT1.
3) Evaluation of SGLT1 Inhibitory Activity
The stable cell line expressing human SGLT1 was seeded at 5×10^4 cells/well on BioCoat™ Poly-D-Lysine 96 well plate with Lid (Becton Dickinson and Company) and cultured at 37° C. under 5% CO2 overnight. The medium was replaced with 100 μL/well of a Na (−) buffer (140 mM choline chloride, 2 mM KCl, 1 mM MgCl2, 1 mM CaCl2, 10 mM HEPES, 5 mM Tris, pH7.4) followed by incubation for 20 minutes at 37° C. under 5% CO2. After removing the Na (−) buffer, a test compound solution which was prepared from Na (+) buffer (140 mM NaCl, 2 mM KCl, 1 mM MgCl2, 1 mM CaCl2, 10 mM HEPES, 5 mM Tris, pH7.4) containing BSA was added thereto at 40 μL/well. In addition, Na (+) buffer containing 8 kBq of ^14C-AMG and 2 mM AMG was added thereto at 40 μL/well, and was mixed well. Na (−) buffer containing BSA was added to a blank well at 40 μL/well and additionally adding a Na (+) buffer containing 8 kBq of ^14C-AMG and 2 mM AMG, and was mixed well. Cells were incubated for 1 hour at 37° C. under 5% CO2. After the reaction, the cells were washed twice with 100 μL/well of iced wash buffer (100 mM AMG, 140 mM choline chloride, 2 mM KCl, 1 mM MgCl2, 1 mM CaCl2, 10 mM HEPES, 5 mM Tris, pH7.4), then lysed in 50 μL/well of a 0.2N aqueous solution of NaOH. The cell lysate was transferred to OptiPlate96 (Perkin-Elmer) and 100 μL/well of MicroScint-40 (Perkin-Elmer) was dispensed. The radioactivity was counted by TOPCOUNT NXT (Perkin-Elmer).
A data was obtained by deducting the average value (CPM) of blank wells from the average value (CPM) of each treated well. The inhibition ratio (%) was calculated by the following formula: inhibition rate (%)=[(A−B)/A]×100, where A is a data of the solvent control, and B is a data of a test compound.

[1] = CHO-K1 cells stably expressing human SGLT1
[2] = CHO-K1 cells expressing human SGLT1

| SMILES | IC50 [1] | IC50 [2] |
| --- | --- | --- |
| CCCc1cccc(-c2cc(NC(=O)[C@@H]3CNC(=O)C3)nn2-c2cccc(COC)c2)c1 [Example 458] | 5.9 nM | – |
| CCCc1cccc(-c2cc(NC(=O)C3CCNC(=O)CC3)nn2-c2ccccc2)c1 (racemic) [Example 274] | 180 nM | – |
| CCCCCCn1nc(NC(=O)C2CNC(=O)C2)cc1-c1cccc(CCC)c1 (racemic) [Example 14] | – | 12 nM |
| CCCc1cccc(-c2cc(NC(=O)[C@H]3CNC(=O)C3)nn2-c2ccccc2F)c1 [Example 117] | – | 1.4 nM |
| CCCc1cccc(-c2cc(NC(=O)C3CNC(=O)C3(C)C)nn2-c2ccccc2)c1 (single isomer, unassigned) [Example 397] | 16 nM | – |
| CCCc1cccc(-c2cc(NC(=O)[C@H]3CNC(=O)[C@@H]3C)nn2-c2ccccc2)c1 [Example 91] | – | 1.8 nM |
| COCCOc1cc(-n2nc(NC(=O)[C@@H]3CNC(=O)C3)cc2-c2cccc(COCC(F)(F)F)c2)ccc1F [Example 424] | 7.1 nM | – |
| CCCc1cccc(-c2cc(NC(=O)C3CNC(=O)OC3)nn2-c2ccccc2)c1 (racemic) [Example 339] | 57 nM | – |
| CCCc1cccc(-c2cc(NC(=O)[C@@H]3CNC(=O)C3)nn2-c2ccccc2OCC)c1 [Example 377] | 9.7 nM | – |
| CC(C)Oc1cc(-n2nc(NC(=O)[C@@H]3CNC(=O)C3)cc2-c2cccc(CO[C@H](C)C(F)(F)F)c2)ccc1F [Example 426] | 2.05 nM | – |
| CCCc1cccc(-c2cc(NC(=O)[C@@H]3CNC(=O)[C@H]3C)nn2-c2ccccc2)c1 [Example 90] | – | 34 nM |
| CC(C)n1nc(NC(=O)C2CNC(=O)C2)cc1-c1ccccc1 (racemic) [Example 16] | – | 11700 nM |
| CCC(C)(C)C(O)c1cccc(-c2cc(NC(=O)[C@@H]3CNC(=O)C3)nn2-c2ccccc2)c1 (mixture of isomers) [Example 434] | 21 nM | – |
| O=C1NCC(C(=O)Nc2cc(-c3cccc(OC(F)(F)F)c3)n(-c3ccccc3)n2)C1CO (racemic) [Example 253] | 14 nM | – |
| CCCc1cccc(-c2cc(NC(=O)C3CCC(=O)NC3)nn2-c2ccccc2)c1 (single isomer, unassigned) [Example 96] | – | 370 nM |
| CCCc1cccc(-c2cc(NC(=O)C3CNC(=O)C3)nn2CCC)c1 (racemic) [Example 15] | – | 40 nM |
